The values below come from article PMC3199867, “Targeting surface nucleolin with multivalent HB-19 and related Nucant pseudopeptides results in distinct inhibitory mechanisms depending on the malignant tumor cell type” (BMC Cancer, 2011).

Assay [1] concerns SW620. The assay can be described thus: Cell growth / proliferation (cell number). It is filed as cell-based, human. As for the experimental part: (§1) Human breast (MDA-MB-231, MDA-MB-435 [37]), prostate (LNCaP, from American Type Culture Collection, ATCC, Rockville, MD), and cervical (HeLa) epithelial cancer cells were grown in DMEM-glutamax medium (Gibco Invitrogen, Cergy-Pontoise, France) containing GlutaMAX™, 4.5 g/l glucose and supplemented with 10% heat-inactivated (56°C for 30 min) fetal bovine serum (FBS; Hyclone, Thermo Fisher Scientific, Inc). Human SW480 cells are derived from a grade 3-4 colon carcinoma, while the highly metastatic counterpart SW620 is established from the lymph node of a person. Both SW480 and SW620 cells (obtained from Francis Raul, IRCAD) are highly tumorigenic in nude mice. They were cultured in D-MEM, 10% FCS. The murine melanoma TIII cell line was obtained from Armelle Prévost-Blondel. Murine T29 lymphoma cells, obtained from Philippe Kastner (CNRS, Strasbourg), have been established from Ik^L/L tumors from mice carrying a hypomorphic mutation (Ik^L/L) in the Ikaros gene encoding a transcription factor that regulates lymphocyte differentiation, and acts also as a tumor suppressor in T lymphocytes. The T29 cells were cultured in RPMI medium containing 25 mM Hepes pH 7.6, 1 mM sodium pyruvate, and 10% FCS. Human leukemia cell lines, Jurkat (acute T cell leukemia), HuT 78 (cutaneous T lymphocyte), RAJI (Burkitt lymphoma), and HL60 (promyelocytic leukemia) were cultured in RPMI-1640 medium (Gibco) containing GlutaMAX™, and supplemented with 10% heat-inactivated FBS as described before. The wild-type Chinese hamster ovary cell line (CHO K1) was purchased from American Type Culture Collection (ATCC; Rockville, MD). The CHO LRP1-null cell line (CHO-13-5-1) was kindly provided by D. Strickland [47]. They were cultured in Ham's F12K medium. All cells were cultured with 10% (v/v) heat inactivated (56°C, 30 min) fetal bovine serum (FBS) (Roche Molecular Biochemicals, Indianapolis, IN) and 50 international units/mL penicillin-streptomycin (Invitrogen). Cell death was monitored conveniently by uptake of the trypan blue dye due to plasma membrane permeability of dying and/or dead cells.

Assay [2] relates to TIII. It is filed as cell-based, murine. The following applies: N6L 10 μM, viable cell number vs untreated control, mean of at least 2 independent experiments. As for the experimental part:
as §1, with “Human leukemia cell lines, Jurkat (acute T cell leukemia), HuT 78 (cutaneous T lymphocyte), RAJI (Burkitt lymphoma), and HL60 (promyelocytic leukemia) were cultured in RPMI-1640 medium (Gibco) containing GlutaMAX™, and supplemented with 10% heat-inactivated FBS as described before. The wild-type Chinese hamster ovary cell line (CHO K1) was purchased from American Type Culture Collection (ATCC; Rockville, MD). The CHO LRP1-null cell line (CHO-13-5-1) was kindly provided by D. Strickland [47]. They were cultured in Ham's F12K medium. All cells were cultured with 10% (v/v) heat inactivated (56°C, 30 min) fetal bovine serum (FBS) (Roche Molecular Biochemicals, Indianapolis, IN) and 50 international units/mL penicillin-streptomycin (Invitrogen).” left out

Assay [3] relates to T29. In words: Cell growth / multiplication (viable cell number). It is filed as cell-based, murine. As for the experimental part: as §1, with “Human leukemia cell lines, Jurkat (acute T cell leukemia), HuT 78 (cutaneous T lymphocyte), RAJI (Burkitt lymphoma), and HL60 (promyelocytic leukemia) were cultured in RPMI-1640 medium (Gibco) containing GlutaMAX™, and supplemented with 10% heat-inactivated FBS as described before. The wild-type Chinese hamster ovary cell line (CHO K1) was purchased from American Type Culture Collection (ATCC; Rockville, MD). The CHO LRP1-null cell line (CHO-13-5-1) was kindly provided by D. Strickland [47]. They were cultured in Ham's F12K medium. All cells were cultured with 10% (v/v) heat inactivated (56°C, 30 min) fetal bovine serum (FBS) (Roche Molecular Biochemicals, Indianapolis, IN) and 50 international units/mL penicillin-streptomycin (Invitrogen).” left out
Figure 7 HB-19 and related multivalent Nucant pseudopeptides induce cell death associated with internucleosomal DNA fragmentation. […] Cell cultures (in triplicate) were monitored for viable cell number daily for 3 days. […] T29 cells seeded at 100,000/ml in 2 ml in the absence (0 μM) or presence of N7 at various concentrations 2.5, 5, 10 and 20 μM were cultured for 3 days and the number of viable cells was determined at day 1, 2, and 3 post-seeding. […] The nuclear extracts were analyzed by immunoblotting using anti-Nt Ab (Methods). […]

Assay [4] concerns T29. The assay can be described thus: Cell death (trypan blue uptake). It is filed as cell-based, murine. As for the experimental part:
as §1

The test system of assay [5] is TIII. The assay can be described thus: Cell death (trypan blue uptake). It is filed as cell-based, murine. The following applies: subconfluent, N6L 10 μM, mean of at least 2 independent experiments. As for the experimental part: as §1
The test system of assay [6] is HL60. The assay can be described thus: Cell death (trypan blue uptake). The settings on record: HL60, freshly passaged, N6L 10 μM, mean of at least 2 independent experiments. It is filed as cell-based, human. Here is the method: as §1
Assay [7] deals with HeLa. In words: Cell death (trypan blue uptake). It is filed as cell-based, human. The settings on record: subconfluent, N6L 10 μM, mean of at least 2 independent experiments. As for the experimental part: as §1
Assay [8] relates to Jurkat. In words: Cell death (trypan blue uptake). It is filed as cell-based, human. The following applies: freshly passaged, N6L 10 μM, mean of at least 2 independent experiments. Here is the method: as §1
Assay [9] concerns LNCaP. The assay can be described thus: Cell death (trypan blue uptake). It is filed as cell-based, human. The settings on record: subconfluent, N6L 10 μM, mean of at least 2 independent experiments. As for the experimental part:
as §1

For assay [10], the system named is MDA-MB 231. The assay can be described thus: Cell death (trypan blue uptake). It is filed as cell-based, human. The settings on record: MDA-MB 231, subconfluent, N6L 10 μM, mean of at least 2 independent experiments. As for the experimental part:
as §1

The test system of assay [11] is MDA-MB 435. In words: Cell death (trypan blue uptake). The following applies: MDA-MB 435, subconfluent, N6L 10 μM, mean of at least 2 independent experiments. It is filed as cell-based, human. Here is the method: as §1
For assay [12], the system named is RAJI. The assay can be described thus: Cell death (trypan blue uptake). It is filed as cell-based, human. The settings on record: freshly passaged, N6L 10 μM, mean of at least 2 independent experiments. Here is the method:
as §1

The subject of assay [13] is SW480. The assay can be described thus: Cell death (trypan blue uptake). It is filed as cell-based, human. The following applies: SW480, subconfluent, N6L 10 μM, mean of at least 2 independent experiments. Here is the method: as §1
In assay [14] the test system is SW620. In words: Cell death (trypan blue uptake). It is filed as cell-based, human. The settings on record: SW620, subconfluent, N6L 10 μM, mean of at least 2 independent experiments. As for the experimental part: as §1
Assay [15] deals with melanoma TIII cell. The assay can be described thus: Cell adhesion. It is filed as cell-based, murine. The following applies: after 5 hours of cell seeding, vs untreated control, mean of at least 2 independent experiments.
The subject of assay [16] is MDA-MB 435 cells. The assay can be described thus: Contact inhibition (immunofluorescence microscopy). It is filed as cell-based, human. The following applies: MDA-MB 435, 20 μM, 4 days. Here is the method:
MDA-MB 435 cells plated in eight-well glass slides were cultured for 4 days in the absence (Control) or presence of N6L (20 µM).

With `CC(=O)N[C@@H](CCCCNC(=O)[C@H](CCCNC(=N)N)NC(=O)[C@@H]1CCCN1C[C@@H](N)CCCCN)C(=O)NC(C)(C)C(=O)NCC(=O)N[C@@H](CCCCNC(=O)[C@H](CCCNC(=N)N)NC(=O)[C@@H]1CCCN1C[C@@H](N)CCCCN)C(=O)NC(C)(C)C(=O)NCC(=O)N[C@@H](CCCCNC(=O)[C@H](CCCNC(=N)N)NC(=O)[C@@H]1CCCN1C[C@@H](N)CCCCN)C(=O)NC(C)(C)C(=O)NCC(=O)N[C@@H](CCCCNC(=O)[C@H](CCCNC(=N)N)NC(=O)[C@@H]1CCCN1C[C@@H](N)CCCCN)C(=O)NC(C)(C)C(=O)NCC(=O)N[C@@H](CCCCNC(=O)[C@H](CCCNC(=N)N)NC(=O)[C@@H]1CCCN1C[C@@H](N)CCCCN)C(=O)NC(C)(C)C(=O)NCC(=O)N[C@@H](CCCCNC(=O)[C@H](CCCNC(=N)N)NC(=O)[C@@H]1CCCN1C[C@@H](N)CCCCN)C(=O)NC(C)(C)C(=O)NCC(N)=O` [Nucant N6L], the Number of cells in assay [1] (SW620, 10 μM added once 5 hours after seeding (20,000 cells/ml, 2 ml), counted seven days after seeding, control 1,800,000) is listed as 450,000. The “% inhibition” value in assay [1] (SW620, 10 μM added once 5 hours after seeding, counted seven days after seeding) is recorded as 75%. Further, the “% Growth inhibition After 3 days” value is 55% in [1] (SW620, N6L 10 μM, viable cell number vs untreated control, mean of at least 2 independent experiments); 83% in [2]; 95% in assay [3] (T29, N6L 10 μM, viable cell number vs untreated control, mean of at least 2 independent experiments). Moreover, the 50% inhibitory concentration (IC50) in [3] (T29 cells, 0-20 μM, number of viable cells at 3 days post-treatment, read-out: Cell number: IC50 72 hours post-passage) is 2 to 4 µM; in assay [4] (T29 cells, 0-20 μM, read-out: Cell death: IC50 24 hours post-passage), 5 to 10 µM. Moreover, in assay [3] (T29 cells, IC50 values at 24 and 72 hours), the “activity (cell death and inhibition of proliferation), fold higher compared to N6 and N7” value was 2 to 4 fold. For the same compound, the “% Cell death After 24 hours” value is recorded as 65% in assay [4] (T29, freshly passaged, N6L 10 μM, mean of at least 2 independent experiments); below 5% in [5]; 48% in [6]; below 5% in assay [7]; 60% in assay [8]; below 5% in assay [9]. Besides, the “% Cell death After 24 hours” value is listed as below 5% in [10]; below 5% in assay [11]; 71% in assay [12]; below 5% in assay [13]; below 5% in [14]. For the same compound, the “% Inhibition of cell Adhesion” value came to 39% in [15] (2.5 μM), 49% in assay [15] (5 μM), 65% in assay [15] (10 μM) and 72% in [15] (20 μM). The contact inhibition entry in [16] is reported as “restoration of contact inhibition”.
